{
  "source": "patent US20220313686A1",
  "about": "“PHARMACEUTICAL COMPOSITIONS COMPRISING A COMBINATION OF OPIOID ANTAGONISTS” (YISSUM RESEARCH DEVELOPMENT COMPANY OF THE HEBREW …, priority 2019, published 2022)",
  "origin": "cited, not measured here",
  "system": "opioid receptors",
  "details": "in vivo; cited from earlier work",
  "data": [
    {"molecule": "C=CCN1CC[C@]23c4c5ccc(O)c4O[C@H]2C(=O)CC[C@@]3(O)[C@H]1C5", "note": "[Naloxone, 17-allyl-4,5α-epoxy-3,14-dihydroxymorphinan-6-one]", "values": [
      {"measurement": "duration of effect", "result": "lasts for about an hour"},
      {"measurement": "onset of action", "result": "acts within minutes"}
    ]}
  ]
}
